The values that follow come from patent publication US12383629B2, “DNA-affibody-drug nanoparticles for inhibiting the metastasis of cancer cells overexpressing HER2” (Arizona Board of Regents on behalf of Arizona State …, priority 2019, dated 2025).

The assay relates to HER2 receptor. Kind of assay: Western blot assay for HER2 targeting. The conditions noted are these: BT474, 1 h; 1 μM DOX, 0.02 μM III, 1 μM Herceptin. The assay is classed as cell-based. On the procedure:
Western Blot Analysis—BT474 cells (50,000 cells/mL) were seeded in a 6-well cell culture plate and incubated in 1 mL of Gibco® RPMI 1640 medium supplemented with 10% fetal bovine serum (FBS) and 1% antibiotic-antimycotic mix antibiotic supplement at 37° C. for 24 h in a 5% CO2 atmosphere. […] The cells were washed with 1 mL 1×PBS buffer, and treated with 150 μL Cellstripper® non-enzymatic cell dissociation solution. After centrifugation at 500×g for 3 min, the cell pellets were washed with 150 μL 1×PBS buffer and treated with 60 μL, of 1×RIPA lysis buffer containing protease and phosphatase inhibitor cocktail (Sigma-Aldrich). After three cycle of freeze, thaw and sonication following by centrifugation at 15,000×g for 2 min at 4° C., the clear supernatant was collected.
Total protein concentration was measured using a BCA kit (Thermo Fisher Scientific). NuPAGE LDS Sample Buffer (4×) and NuPAGE Reducing Agent (10×) was added to the lysate which was denatured at 70° C. for 5 min. Equal amounts of lysates (25 μg) were loaded on a 4%-12% SDS-polyacrylamide Bis-Tris gels (Invitrogen) according to the manufacturer's recommendations and then proteins were transferred to nitrocellulose membranes. […]

Regarding “Herceptin: monoclonal antibody drug targeting HER2, used as positive control [reference compound]”, the “level of phosphorylated HER2 (Y1221/1222)” value is “increased”.
